This passage reports ΔTm and inhibition results from ChEMBL document CHEMBL6096662, “Discovery and structure-activity relationship study of nicotinamide derivatives as DNA demethylase ALKBH2 inhibitors” (Eur J Med Chem, 2025).

Assay [1] concerns the target T1, DNA oxidative demethylase ALKBH2 (Homo sapiens) (UniProt Q6NS38).
T1 sequence (whole entry): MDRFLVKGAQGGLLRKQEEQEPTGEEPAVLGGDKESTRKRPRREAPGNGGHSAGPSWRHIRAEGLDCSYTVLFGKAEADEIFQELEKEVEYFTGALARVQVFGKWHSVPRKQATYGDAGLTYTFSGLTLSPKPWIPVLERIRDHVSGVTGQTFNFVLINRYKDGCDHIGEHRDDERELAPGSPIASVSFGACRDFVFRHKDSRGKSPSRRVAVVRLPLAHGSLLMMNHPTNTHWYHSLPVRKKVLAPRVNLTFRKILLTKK
The settings on record: dose 12.5 µM.

Assay [2] addresses T1, DNA oxidative demethylase ALKBH2 (Homo sapiens). The note with it: dose 0.78 µM.
For assay [3] the target is unchanged. The note with it: dose 25.0 µM.
Assay [4] shares this target. The note with it: dose 1.56 µM.
Assay [5] shares this target. The note with it: dose 200.0 µM.
Assay [6] shares this target. The settings on record: dose 50.0 µM.
The target is the same in assay [7]. The settings on record: dose 6.25 µM.
The target is the same in assay [8]. The settings on record: dose 3.16 µM.
The target is the same in assay [9]. The settings on record: dose 100.0 µM.
In assay [10] the test system is U-87 MG. The note with it: Homo sapiens; U-87MG ATCC; dose 5-10 µM, time 12.0 day.
The subject of assay [11] is U-87 MG. The note with it: Homo sapiens; U-87MG ATCC; dose 2.5-5 µM, time <= 24.0 hrs.
Assay [12] concerns U-87 MG. The settings on record: Homo sapiens; U-87MG ATCC; dose 2.5-5 µM, time <= 24.0 hrs. This is another data set of the same source.

Active and inactive are the calls of the source. No cut-off for these calls is given here.

By ΔTm is commonly meant the shift of the melting midpoint relative to a reference. With `CC(C)(C)C(NC(=O)c1ccc(-n2cc(C(=O)O)cn2)nc1)c1ccccc1` (configuration not stated), the ΔTm in [1] came out at 8.24 °C; in assay [2], 2.4 °C; in assay [3], 9.62 °C; in [4] it was 3.88 °C; in [5], 12.8 °C; in assay [6], 10.7 °C. Moreover, the results for the ΔTm in assay [7], in assay [8] and in [9] were 7.01 °C, 5.68 °C and 11.7 °C, respectively.

For `CCOC(=O)c1cnn(-c2ccc(C(=O)NC(c3ccccc3)C(C)(C)C)cn2)c1` (configuration not stated), the inhibition result in the assay with U-87 MG [10] was “Active”. Also, the inhibition entry with U-87 MG [11] is “Dose-dependent-effect”; in the assay on U-87 MG [12] it was “Time-dependent-effect”.
